Read-outs that look alike come from different tables or passages of the source. Marks after values point to notes of the source that are not given here.
Experiments:
human GIPR = target: T1, human GIPR (Homo sapiens, UniProt P48546); assay: Agonist activity on human GIPR, CRE-luciferase reporter assay (increase in intracellular cAMP as indicator); format: cell-based; details: for Selectivity Ratio (B/A): GLP1R EC50 / GIPR EC50; for EC50: hGIPR/CRE-LUC/CHO-K1 cells, 4 h incubation
T1 construct: expressed in transfected cells
T1 sequence (P48546 22-466): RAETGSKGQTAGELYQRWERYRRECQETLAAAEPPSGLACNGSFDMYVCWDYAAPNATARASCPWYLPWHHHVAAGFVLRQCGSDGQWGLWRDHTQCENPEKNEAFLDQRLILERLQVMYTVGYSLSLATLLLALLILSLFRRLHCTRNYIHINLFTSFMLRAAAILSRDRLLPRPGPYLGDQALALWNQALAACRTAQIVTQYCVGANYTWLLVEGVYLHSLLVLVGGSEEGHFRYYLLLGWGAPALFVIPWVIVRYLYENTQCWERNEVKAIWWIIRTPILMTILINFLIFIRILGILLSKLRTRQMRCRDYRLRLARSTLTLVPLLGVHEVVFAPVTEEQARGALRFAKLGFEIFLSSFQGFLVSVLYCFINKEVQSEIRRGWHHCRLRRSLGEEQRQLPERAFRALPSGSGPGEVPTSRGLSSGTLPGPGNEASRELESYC

Amino acid sequences for entries named in this document (tags omitted). Residues count along the entry.
UniProt P43220, 24-463: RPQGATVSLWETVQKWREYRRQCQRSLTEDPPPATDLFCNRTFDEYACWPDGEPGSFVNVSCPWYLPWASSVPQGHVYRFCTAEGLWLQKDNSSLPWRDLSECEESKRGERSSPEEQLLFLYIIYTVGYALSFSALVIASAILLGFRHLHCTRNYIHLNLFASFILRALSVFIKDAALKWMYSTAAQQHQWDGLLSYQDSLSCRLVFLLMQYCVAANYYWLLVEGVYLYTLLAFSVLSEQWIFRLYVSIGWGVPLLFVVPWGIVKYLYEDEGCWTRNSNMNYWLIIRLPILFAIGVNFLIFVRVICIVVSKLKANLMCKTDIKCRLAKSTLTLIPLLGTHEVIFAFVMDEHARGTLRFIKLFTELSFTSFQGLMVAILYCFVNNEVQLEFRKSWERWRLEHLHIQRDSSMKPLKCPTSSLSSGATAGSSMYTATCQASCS

[1] = system: morphine (0.6 mg/kg, s.c.)-induced emesis in ferrets; assay: Morphine-induced acute emetic model in male ferrets; details: for Comment: Anti-Emetic Activity (inhibition) on morphine-induced emesis: summary of the morphine experiments
human GLP-1R = human GLP-1R (Homo sapiens, UniProt P43220); assay: Agonist activity on human GLP-1R, CRE-luciferase reporter assay (increase in intracellular cAMP as indicator); format: cell-based; parameters: expressed in transfected cells; details: hGLP-1R/CRE-luc/CHO-K1 cells, 4 h incubation; read-out: GLP1R EC50 nM (B)
[2] = read-out: GIPR pEC50 (converted)
[3] = male ferrets, 30 nmol/kg s.c., morphine 0.6 mg/kg s.c. 4 hours after administration
[4] = ferrets, morphine 0.6 mg/kg s.c. 0.5 h after drug, 106-151 μg/kg s.c. (30 nmol/kg)
[5] = ferrets, morphine 0.6 mg/kg s.c. 0.5 h after drug, 106-151 μg/kg s.c. (30 nmol/kg), non-responders counted as 30 min

CCCCCCCCCCCCCCCC(=O)N[C@@H](CCC(=O)NCCCC[C@H](NC(=O)[C@H](CCCCN)NC(=O)[C@H](CC(=O)O)NC(=O)[C@H](CCSC)NC(=O)[C@H](C)NC(=O)[C@@H](NC(=O)[C@H](CO)NC(=O)[C@H](Cc1ccc(O)cc1)NC(=O)[C@H](CC(=O)O)NC(=O)[C@H](CO)NC(=O)[C@@H](NC(=O)[C@H](Cc1ccccc1)NC(=O)[C@@H](NC(=O)CNC(=O)[C@H](CCC(=O)O)NC(=O)C(C)(C)NC(=O)[C@@H](N)Cc1ccc(O)cc1)[C@@H](C)O)[C@@H](C)CC)[C@@H](C)CC)C(=O)N[C@@H](Cc1c[nH]cn1)C(=O)N[C@@H](CCC(N)=O)C(=O)N[C@@H](CCC(N)=O)C(=O)N[C@@H](CC(=O)O)C(=O)N[C@@H](Cc1ccccc1)C(=O)N[C@H](C(=O)N[C@@H](CC(N)=O)C(=O)N[C@@H](Cc1c[nH]c2ccccc12)C(=O)N[C@@H](CC(C)C)C(=O)N[C@@H](CC(C)C)C(=O)N[C@@H](C)C(=O)N[C@@H](CCC(N)=O)C(=O)N[C@@H](CCCCN)C(=O)NCC(=O)N[C@@H](CCCCN)C(=O)N[C@@H](CCCCN)C(=O)N[C@@H](CC(N)=O)C(=O)N[C@@H](CC(=O)O)C(=O)N[C@@H](Cc1c[nH]c2ccccc12)C(=O)N[C@@H](CCCCN)C(=O)N[C@@H](Cc1c[nH]cn1)C(=O)N[C@@H](CC(N)=O)C(=O)N[C@H](C(=O)N[C@H](C(=O)N[C@@H](CCC(N)=O)C(=O)O)[C@@H](C)CC)[C@@H](C)CC)C(C)C)C(=O)O [Compound 5]
Selectivity Ratio (B/A) (human GIPR): 93,300
EC50 (human GIPR; read-out: GIPR EC50 nM (A)): 0.001 nM
EC50 (human GIPR; [2]): 0.00126 nM
Ferrets in which the vomiting symptom was observed (in words) ([1]; ferrets, morphine administered 4 hours after administration): none of the three ferrets
Duration of emesis [1, 3]: 0.0 ± 0.0 min
Emetic episodes [1, 3]: 0.0 ± 0.0
Latency period [1, 3]: 30.0 ± 0.0 min
No. of animals that did not vomit [1, 3]: 3
Emetic episodes, % Inhibition of mean value ([1]; male ferrets, 30 nmol/kg s.c., morphine 0.6 mg/kg s.c. 4 hours after administration, vs vehicle): [100%]
Comment: Anti-Emetic Activity (inhibition) on morphine-induced emesis ([1]; male ferrets): 100% inhibition

CCCC[C@H](NC(=O)C(C)(C)NC(=O)[C@@H](NC(=O)[C@H](CO)NC(=O)[C@H](Cc1ccc(O)cc1)NC(=O)[C@H](CC(=O)O)NC(=O)[C@H](CO)NC(=O)[C@@H](NC(=O)[C@H](Cc1ccccc1)NC(=O)[C@@H](NC(=O)CNC(=O)[C@H](CCC(=O)O)NC(=O)C(C)(C)NC(=O)[C@@H](N)Cc1cc(Br)c(O)c(Br)c1)[C@@H](C)O)[C@@H](C)CC)[C@@H](C)CC)C(=O)N[C@@H](CC(=O)O)C(=O)N[C@@H](CCCCN)C(=O)N[C@H](C(=O)N[C@@H](Cc1c[nH]cn1)C(=O)N[C@@H](CCC(N)=O)C(=O)N[C@@H](CCC(N)=O)C(=O)N[C@@H](CC(=O)O)C(=O)N[C@@H](Cc1ccccc1)C(=O)N[C@H](C(=O)N[C@@H](CC(N)=O)C(=O)N[C@@H](Cc1c[nH]c2ccccc12)C(=O)N[C@@H](CC(C)C)C(=O)N[C@@H](CC(C)C)C(=O)N[C@@H](C)C(=O)N[C@@H](CCC(N)=O)C(=O)N[C@@H](CCCCN)C(=O)NCC(=O)N[C@@H](CCCCN)C(=O)N[C@@H](CCCCN)C(=O)N[C@@H](CC(N)=O)C(=O)N[C@@H](CC(=O)O)C(=O)N[C@@H](Cc1c[nH]c2ccccc12)C(=O)N[C@@H](CCCCN)C(=O)N[C@@H](Cc1c[nH]cn1)C(=O)N[C@@H](CC(N)=O)C(=O)N[C@H](C(=O)N[C@H](C(=O)N[C@@H](CCC(N)=O)C(=O)O)[C@@H](C)O)[C@@H](C)CC)C(C)C)[C@@H](C)CC [Compound 8]
EC50 (human GLP-1R): 117 nM
Selectivity Ratio (B/A) (human GIPR): 5,595

CCCC[C@H](NC(=O)[C@H](C)NC(=O)[C@@H](NC(=O)C1(NC(=O)[C@H](Cc2ccc(O)cc2)NC(=O)[C@H](CC(=O)O)NC(=O)[C@H](CO)NC(=O)[C@@H](NC(=O)[C@H](Cc2ccccc2)NC(=O)[C@@H](NC(=O)CNC(=O)[C@H](CCC(=O)O)NC(=O)C(C)(C)NC(=O)[C@@H](N)Cc2ccccc2)[C@@H](C)O)[C@@H](C)CC)CCCC1)[C@@H](C)CC)C(=O)N[C@@H](CC(=O)O)C(=O)N[C@@H](CCCCN)C(=O)N[C@H](C(=O)N[C@@H](Cc1c[nH]cn1)C(=O)N[C@@H](CCC(N)=O)C(=O)N[C@@H](CCC(N)=O)C(=O)N[C@@H](CC(=O)O)C(=O)N[C@@H](Cc1ccccc1)C(=O)N[C@H](C(=O)N[C@@H](CC(N)=O)C(=O)N[C@@H](Cc1c[nH]c2ccccc12)C(=O)N[C@@H](CC(C)C)C(=O)N[C@@H](CC(C)C)C(=O)N[C@@H](C)C(=O)N[C@@H](CCC(N)=O)C(=O)N[C@@H](CCCCN)C(=O)NCC(=O)N[C@@H](CCCCN)C(=O)N[C@@H](CCCCN)C(=O)N[C@@H](CC(N)=O)C(=O)N[C@@H](CC(=O)O)C(=O)N[C@@H](Cc1c[nH]c2ccccc12)C(=O)N[C@@H](CCCCN)C(=O)N[C@@H](Cc1c[nH]cn1)C(=O)N[C@@H](CC(N)=O)C(=O)N[C@H](C(=O)N[C@H](C(=O)N[C@@H](CCC(N)=O)C(=O)O)[C@@H](C)O)[C@@H](C)CC)C(C)C)[C@@H](C)CC [Compound 9]
EC50 (human GLP-1R): > 1000 nM
Selectivity Ratio (B/A) (human GIPR): >100,000
EC50 (human GIPR; [2]): 0.00398 nM
Emesis: Duration [1, 4]: 0.0 ± 0.0 min
Emesis: Frequency [1, 4]: 0.0 ± 0.0
Emesis: No. of animals (responder/used) [1, 4]: 0/4 #
Fidget: Duration [1, 4]: 0.0 ± 0.0 min
Fidget: Frequency [1, 4]: 0.0 ± 0.0
Fidget: No. of animals (responder/used) [1, 4]: 0/4
Licking: Duration [1, 4]: 0.0 ± 0.0 min
Licking: Frequency [1, 4]: 0.0 ± 0.0
Licking: No. of animals (responder/used) [1, 4]: 0/4 #
Retching: Duration [1, 4]: 0.0 ± 0.0 min
Retching: Frequency [1, 4]: 0.0 ± 0.0
Retching: No. of animals (responder/used) [1, 4]: 0/4 #
Vomiting: Duration [1, 4]: 0.0 ± 0.0 min
Vomiting: Frequency [1, 4]: 0.0 ± 0.0
Vomiting: No. of animals (responder/used) [1, 4]: 0/4
Emesis: Latency [1, 5]: 30.0 ± 0.0 min
Fidget: Latency [1, 5]: 30.0 ± 0.0 min
Licking: Latency [1, 5]: 30.0 ± 0.0 min
Retching: Latency [1, 5]: 30.0 ± 0.0 min
Vomiting: Latency [1, 5]: 30.0 ± 0.0 min
Attenuation of morphine-induced emesis (in words) ([1]; male ferrets, 30 nmol/kg s.c. 30 minutes before morphine 0.6 mg/kg s.c.): completely attenuated
Comment: Anti-Emetic Activity (inhibition) on morphine-induced emesis ([1]; male ferrets): 100% inhibition
